Laboratory results from PubChem BioAssay AID624466 (The Scripps Research Institute Molecular Screening Center, 2012).
The list shows a part of the results, in another mix than the full data. Calls of active or inactive are those of the source.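 How the source made its calls: active means inhibition above a per-plate cutoff, the mean inhibition of test compounds on that plate plus 3 SD (cut at about 49% in these data); inactive means the rest.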

Protein sequences, listed by entry. Tags and fused reporters are not part of them. Lines headed by an entry give the natural chain unless they say otherwise; changes in a name come on top.
UniProt Q96RJ0: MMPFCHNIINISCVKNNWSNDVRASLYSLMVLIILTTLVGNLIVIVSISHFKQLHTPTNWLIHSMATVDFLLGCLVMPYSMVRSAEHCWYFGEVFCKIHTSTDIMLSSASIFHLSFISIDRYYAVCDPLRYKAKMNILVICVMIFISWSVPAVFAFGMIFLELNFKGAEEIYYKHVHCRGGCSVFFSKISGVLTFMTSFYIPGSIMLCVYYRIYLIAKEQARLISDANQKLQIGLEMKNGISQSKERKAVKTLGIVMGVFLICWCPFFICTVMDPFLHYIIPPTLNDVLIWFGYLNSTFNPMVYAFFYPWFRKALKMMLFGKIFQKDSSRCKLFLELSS

molecular target: Trace amine-associated receptor 1 (Homo sapiens) (UniProt Q96RJ0); assay: blockers of beta-PEA-driven TAAR1 calcium signal – Fluo-8 calcium fluorescence, CHO RD-HGA16 cells, primary screen (AID 624466); details: CHO RD-HGA16 TAAR1, Fluo-8 calcium fluorescence, antagonist; at 3 µM; stronger effect = higher value;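 further: 0% = DMSO plus EC80 beta-PEA response and 100% = DMSO alone without agonist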

Structure (SMILES)	inhibition
Cc1ccc(NP(=O)(Oc2cccc(C)c2)Oc2cccc(C)c2)nc1	inactive: 2.69%
c1ccc(-c2nn[nH]n2)c(-c2nn[nH]n2)c1	inactive: 3.74%
CC(=O)Nc1ccc(Oc2c([N+](=O)[O-])cc([N+](=O)[O-])cc2[N+](=O)[O-])cc1	inactive: -10.6%
CC(=O)Nc1ccc([As](=O)(O)O)c(O)c1	inactive: 12.3%
COC(=O)C1(C)COP(=O)(NCc2ccccc2)OC1 (stereo not given)	inactive: -28.7%
CC(=O)c1ccc(N2CC2c2ccncc2)cc1 (stereo not given)	inactive: -9.24%
N#C/C(=C\c1ccc(N(CCBr)CCBr)cc1)C(N)=O	inactive: -4.39%
C[C@H]1OP(=O)(Oc2ccccc2)C[C@@H]2O[C@@H]21 (stereo not given in full)	inactive: -18.9%
C[C@@H]1C=CCP(=O)(Oc2ccccc2)O1 (stereo not given in full)	inactive: -13.5%
Cc1ccccc1CN(C)C(=O)COC(=O)C(O)(c1ccccc1)c1ccccc1	inactive: -16.8%
CCc1cc(O)c([N+](=O)[O-])c(C)c1[N+](=O)[O-]	inactive: 10.4%
CC(C)(C)C(=O)NC(Sc1ccccc1)C(Cl)(Cl)Cl (stereo not given)	inactive: -13.9%
CCOc1ccc(C2=NCC(CBr)S2)cc1 (stereo not given)	inactive: 4.57%
O=P1(Nc2nc3ccc(Cl)cc3s2)COc2ccccc2O1 (stereo not given)	inactive: -1.19%
c1nnnn1CCn1cnnn1	inactive: -5.52%
CC(C)C(=O)NC(Sc1ccccc1)C(Cl)(Cl)Cl (stereo not given)	inactive: 0.7%
O=P(Nc1nccs1)(c1ccccc1)c1ccccc1	inactive: -0.28%
C(Cc1nn[nH]n1)Cc1nn[nH]n1	inactive: -5.54%
Nc1ccc([As](=O)(O)c2ccc([N+](=O)[O-])cc2)cc1	inactive: -7.88%
C/C(N)=N\P(=O)(OCc1ccccc1)OCc1ccccc1	inactive: -4.51%
O=C(OC1CN2CCC1CC2)c1cccc(Cl)c1 (stereo not given)	inactive: -15.7%
O=[N+]([O-])c1ncn(CCn2cnc([N+](=O)[O-])n2)n1	inactive: -17.3%
CC(=O)NC(SC(=S)N(C)C)C(Cl)(Cl)Cl (stereo not given)	inactive: 4.86%
O=[As](O)(c1ccccc1)c1ccc(O)cc1	inactive: -20.2%
C[C@H]1OP(=O)(Oc2ccccc2)[C@H](O)[C@H](O)[C@H]1N=[N+]=[N-] (stereo not given in full)	inactive: 17.8%

Structure (SMILES)	inhibition
O=P(Nc1nc2ccccc2s1)(c1ccccc1)c1ccccc1	inactive: 3.36%
COc1ccc(N)c([N+](=O)[O-])c1[N+](=O)[O-]	inactive: -23.7%
Nc1ccc(CCCCOc2ccccc2)cc1	inactive: -0.53%
O=P(Nc1ccccn1)(c1ccc(Br)cc1)c1ccc(Br)cc1	inactive: -7.74%
CN(C)C1(CNC(=O)c2ccc(Cl)c(S(N)(=O)=O)c2)CCCCC1	inactive: -5.12%
COC(=O)C1(C)COP(=O)(Nc2ccccc2)OC1 (stereo not given)	inactive: -12.6%
O=[N+]([O-])c1cccc(NC2=NCC(CBr)S2)c1 (stereo not given)	inactive: -8.88%
O=C(O)CNc1ccc([As](=O)(O)O)cc1	inactive: -8.87%
CC(C)(C)C(=O)NC(Sc1ccncn1)C(Cl)(Cl)Cl (stereo not given)	inactive: -18.9%
O=[N+]([O-])c1ncn(CCn2ncnc2[N+](=O)[O-])n1	inactive: -9.08%
O=C(Nc1cc([As](=O)(O)O)ccc1O)c1ccccc1	inactive: -25.5%
O=P1(N(CCCl)CCCl)OCCCS1 (stereo not given)	inactive: -12.9%
CN(C)C(=O)OCCc1n(C)cc[n+]1C	inactive: 8.11%
CC(C)c1nc(Nc2ccccc2)n(P(=O)(N(C)C)N(C)C)n1	inactive: -20.6%
CC(C)=N/N=C(\N)N[N+](=O)[O-]	inactive: 4.83%
CC1CCN(C(=O)Oc2c(Cl)cc(Cl)c3cccnc23)CC1	inactive: 19.1%
c1cc(-c2nn[nH]n2)ccc1-c1nn[nH]n1	inactive: 1.87%
C[N+]1=C2C=CC=CC=C2SC12C([N+](=O)[O-])=CC([N+](=O)[O-])=C[C-]2[N+](=O)[O-] (stereo not given)	inactive: 25.9%
Nc1ccc([As](=O)(O)c2ccc(N)cc2)cc1	inactive: -11.6%
CCN(/C(=N/P(=O)(N1CCOCC1)N1CCOCC1)N1CCOCC1)c1ccc(OC)cc1	inactive: -16.9%
O=[N+]([O-])c1cccc2n[nH]nc12	inactive: -5.05%
CC(=O)N1C2C3N(C(C)=O)C1C1N(C(C)=O)C(C(N1C(C)=O)N3C(C)=O)N2C(C)=O	inactive: -15.2%
CCc1nc2c(n1)c1c(non1O)c1c2no[n+]1[O-]	inactive: 17.6%
O=[N+]([O-])c1cc([N+](=O)[O-])c(CCNc2ccccc2)c([N+](=O)[O-])c1	inactive: 6.15%
Cc1ccc(NP(=O)(Oc2ccccc2)Oc2ccccc2)nc1	inactive: -19.8%

Structure (SMILES)	inhibition
COc1ccc(C2=NCC(CBr)S2)cc1 (stereo not given)	inactive: -12.9%
Nc1cc(N)c2nonc2c1[N+](=O)[O-]	inactive: -9.87%
CC(C)CC(=O)NC(Sc1ccc(Cl)cc1)C(Cl)(Cl)Cl (stereo not given)	inactive: 5.65%
O=C(NC(Sc1ccncn1)C(Cl)(Cl)Cl)c1ccccc1 (stereo not given)	inactive: -18.6%
Oc1ccccc1CNc1ccccn1	inactive: 1.55%
Cc1ccc(OP(=O)(Nc2nccs2)Oc2ccc(C)cc2)cc1	inactive: 2.58%
COc1ccccc1OP(=O)(Nc1ccc(C)cn1)Oc1ccccc1OC	inactive: 43.5%
CN1CCCC(OC(=O)C(c2ccccc2)c2ccccc2)C1 (stereo not given)	inactive: 11.7%
Clc1ccc(Cl)c(NC2=NCC(CBr)S2)c1 (stereo not given)	inactive: 2.25%
NC(=O)c1cc([N+](=O)[O-])cc([N+](=O)[O-])c1N	inactive: 1.77%
Cc1ccc(N/C(=N/P(=O)(N2CCOCC2)N2CCOCC2)N2CCOCC2)cc1	inactive: 10%
CN(C(=O)Cc1ccc(Cl)c(Cl)c1)[C@H]1CCCC[C@H]1N1CCCC1	inactive: -13.1%
CCN(N=Nc1nonc1N)c1nonc1N	inactive: -10.3%
CN(C(=O)Cc1ccccc1)C1CC[C@@]2(CCCO2)C[C@@H]1N1CCCC1 (stereo not given in full)	inactive: 5.38%
Nc1cccc2ccc([As](=O)(O)O)cc12	inactive: -3.68%
Cc1ccc(NP(=O)(Oc2ccccc2F)Oc2ccccc2F)nc1	inactive: -12.6%
CN(C(=O)Cc1ccc(Cl)c(Cl)c1)[C@H]1CCCC[C@@H]1N1CCCC1	inactive: -9.86%
Cc1cc(SC(NC(=O)c2ccc(F)cc2)C(Cl)(Cl)Cl)ncn1 (stereo not given)	inactive: -14.7%
CCOP(=O)(Nc1ccccc1)OCC	inactive: -8.84%
CCn1c(=O)n(C2CCN(CC3CCCCCCC3)C[C@H]2CO)c2ccccc21 (stereo not given in full)	inactive: -20.2%
CCCC1OP(N)(=O)OCC1CC (stereo not given)	inactive: -11.8%
CC(=O)Nc1ccc([As](=O)(O)O)cc1	inactive: -4.11%
O=C(O)c1ccccc1[As](=O)(O)O	inactive: 7.32%
O=P(Nc1nc2ccc(Cl)cc2s1)(c1ccccc1)c1ccccc1	inactive: 0.34%
CN(C)P(=O)(N(C)C)n1c(Nc2ccccc2)nnc1-c1ccccc1	inactive: -17.2%
